Laboratory results published in patent US20130123253A1, “MODULATORS OF CENTRAL NERVOUS SYSTEM NEUROTRANSMITTERS” (HUMAN BIOMOLECULAR RESEARCH INSTITUTE, priority 2004, published 2013).

By UniProt entry, the sequences of proteins in these tests, tags left out.
UniProt P31645, whole entry: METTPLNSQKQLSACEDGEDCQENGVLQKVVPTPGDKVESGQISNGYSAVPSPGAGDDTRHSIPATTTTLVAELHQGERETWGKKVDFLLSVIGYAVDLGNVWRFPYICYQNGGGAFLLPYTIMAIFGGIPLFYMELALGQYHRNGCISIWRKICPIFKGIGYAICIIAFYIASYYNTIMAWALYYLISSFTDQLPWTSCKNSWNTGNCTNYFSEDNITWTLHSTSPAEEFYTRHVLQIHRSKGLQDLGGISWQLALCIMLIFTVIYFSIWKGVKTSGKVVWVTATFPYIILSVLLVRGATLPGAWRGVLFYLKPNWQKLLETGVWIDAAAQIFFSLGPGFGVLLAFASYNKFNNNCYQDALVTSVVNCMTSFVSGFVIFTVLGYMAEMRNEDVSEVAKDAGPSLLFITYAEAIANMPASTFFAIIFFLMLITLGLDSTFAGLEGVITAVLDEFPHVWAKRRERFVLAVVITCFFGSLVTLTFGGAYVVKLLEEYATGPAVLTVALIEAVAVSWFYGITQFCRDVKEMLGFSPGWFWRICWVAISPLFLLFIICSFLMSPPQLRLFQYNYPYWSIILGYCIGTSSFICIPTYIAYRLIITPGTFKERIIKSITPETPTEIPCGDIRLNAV

Key:
[1] = molecular target: T1, human serotonin transporter (hSERT) (Homo sapiens, UniProt P31645); experiment: Inhibition of [125I]RTI-55 binding in HEK-hSERT cell membranes
[2] = molecular target: T1, human serotonin transporter (hSERT); experiment: cell-based
[3] = read-out: Binding (Ki, nM) hSERT
[4] = Binding (ki, nM) hSERT, Table 2
[5] = Reuptake (kup, nM) hSERT, Table 2
[6] = Binding (Ki, nM) hSERT, Table 1
[7] = Reuptake (Kr, nM) hSERT, Table 1
[8] = read-out: hSERT binding Ki, text of Example 28
[9] = read-out: Binding (Ki, nM) hSERT, Table 1

SMILES: NCC1CCC(c2ccc(Cl)cc2)O1 (centres unmarked) [2-(aminomethyl)-5-(4′-chlorophenyl) tetrahydrafuran]
Ki [1, 3]: 1100 nM | Ki ([2]; Reuptake (Kr, nM) hSERT): 32 nM

SMILES: COc1ccc(F)cc1C1CCC(CCNCCC2CCC(c3cc(F)ccc3OC)O2)O1 (stereo not drawn) [N,N-bis (cis-5′-(2″- methoxy-5″-fluoro-phenyl-2′-tetrahydro-furyl)ethyl) Amine]
Ki [1, 4]: 150 nM | Ki [2, 5]: 306 nM

SMILES: NCC1CCC(C2CCCCC2)O1 (centres unmarked) [2-(aminomethyl)-5-cyclohexyl tetrahydrofuran]
Ki [1, 6]: > 10000 nM | Ki [2, 7]: 939 nM

SMILES: COc1ccc(F)cc1CC[C@H]1CC[C@H](CN)O1 (relative stereo) [Compound 18i, Trans-2-(aminomethyl)-5-(2′-methoxy-5′-fluorophenethyl)tetrahydrofuran]
Ki ([1]; Binding (Ki, nM) hSERT): 3.2 nM | IC50 ([2]; Reuptake (IC50, nM) hSERT): 2.5 nM

SMILES: NCCC1CCC(CCc2ccc(-c3ccccc3)cc2)O1 (centres unmarked) [2-(aminoethyl)-5-(4′-phenylphenethyl) tetrahydrofuran]
Ki [1, 6]: 3590 nM | Ki [2, 7]: 2990 nM

SMILES: COc1ccc(C2=NN(CCCCCNCCC(Oc3ccc(C(F)(F)F)cc3)c3ccccc3)C(=O)C3CC=CCC23)cc1OC (single isomer, unassigned) [24(R), 4-(3,4-Dimethoxy-phenyl)-2-{5-[3-phenyl-3-(4-trifluoromethyl-phenoxy)-propylamino]-pentyl}-4a,5,8,8a-tetrahydro-2H-phthalazin-1-one]
Ki ([1]; Binding (Ki, nM) hSERT): 82 ± 22 nM | IC50 ([2]; Reuptake (IC50, nM) hSERT): 40 ± 15 nM

SMILES: NCC1CCC(CCc2cccnc2)O1 (centres unmarked) [2-(aminomethyl)-5-(3′-pyridylethyl) tetrahydrofuran]
Ki [1, 9]: 4550 nM | Ki [2, 7]: 2550 nM

SMILES: COc1ccc(CCC2CCC(CN)O2)c2ccccc12 (centres unmarked) [2-(aminomethyl)-5-(4′-methoxy-1′-naphthylethyl) tetrahydrofuran]
Ki [2, 7]: 53 nM

SMILES: COc1ccc(C2=NN(CCCCCNCCC(Oc3ccc(C(F)(F)F)cc3)c3ccccc3)C(=O)C3CC=CCC23)cc1OC (single isomer, unassigned) [23(S), 4-(3,4-Dimethoxy-phenyl)-2-{5-[3-phenyl-3-(4-trifluoromethyl-phenoxy)-propylamino]-pentyl}-4a,5,8,8a-tetrahydro-2H-phthalazin-1-one]
Ki ([1]; Binding (Ki, nM) hSERT): 1210 ± 146 nM | IC50 ([2]; Reuptake (IC50, nM) hSERT): > 5740 nM

SMILES: COc1ccc(F)cc1CCC1CCC(CN)O1 (centres unmarked) [2-aminomethyl-5-(2′-methoxy-5′-fluorophenethyltetrahydrofuran]
Ki ([1]; Binding (Ki, nM) hSERT): 609 nM | Ki ([2]; Reuptake (Kr, nM) hSERT): 1.64 nM

SMILES: NCC1CCC(c2ccc(Br)cc2)O1 (centres unmarked) [2-(aminomethyl)-5-(4′-bromophenyl) tetrahydrofuran]
Ki [1, 3]: 1110 nM | Ki ([2]; Reuptake (Kr, nM) hSERT): 50 nM

SMILES: Cc1cc(CCC2CCC(CCNCCC3CCC(CCc4ccc(F)c(C)c4)O3)O2)ccc1F (centres unmarked) [N,N-bis(5′-(p-fluoro-m-methyl-phenethyl)-2′-tetra-hydro-furylethyl) amine]
Ki [1, 4]: 743 nM | Ki [2, 5]: 2380 nM

SMILES: NCC1CCC(c2ccccc2)O1 (centres unmarked) [2-(aminomethyl)-5-phenyltetra-hydrofuran]
Ki [1, 3]: 43 nM

SMILES: NCC1CCC(CCc2ccncc2)O1 (centres unmarked) [2-(aminomethyl)-5-(4′-pyridylethyl) tetrahydrofuran]
Ki [1, 6]: 18600 nM

SMILES: COc1ccc(F)cc1C[C@H]1CC[C@H](CN)O1 (stereo in doubt) [Compound 18e, Trans-2-aminomethyl-5-(2′-methoxy-5′-fluorophenylmethyl)tetrahydrofuran]
IC50 [2]: 122 nM

SMILES: CC(C)(C)c1ccc(C2CCC(CCNCCC3CCC(c4ccc(C(C)(C)C)cc4)O3)O2)cc1 (centres unmarked) [N,N-bis (5′-(p-t-butyl-phenyl)-2′-tetra-hydro-furyl-ethyl) amine]
Ki [1, 4]: > 10000 nM

SMILES: NC[C@@H]1CC[C@@H](c2cnc3ccccc3c2)O1 (relative stereo) [trans-2-(aminomethyl)-5-(3′-quinoline) tetrahydrofuran]
Ki [1, 6]: 5860 nM

SMILES: COc1ccc(C2CCC(CN)O2)cc1 (centres unmarked) [2-(aminomethyl)-5-(4′-methoxy-phenyl)tetra-hydrofuran]
Ki [1, 9]: 6880 nM

SMILES: COc1ccc(CCC2CCC(CCN)O2)c2ccccc12 (centres unmarked) [Compound 17b, 2-Aminoethyl-5-(4′-methoxy1-1′-naphthethyl)tetrahydrofuran]
Ki [1, 8]: 92.3 nM

SMILES: COc1ccc(F)cc1CCCCC1CCC(CN)O1 (stereo not drawn) [Compound 18q, Trans-2-Aminomethyl-5-(5″-fluoro-2″-methoxyphenyl-4′-butyptetrahydrofuran]
Ki ([1]; Binding (Ki, nM) hSERT): 4 nM

SMILES: NCC1CCC(Cc2ccccc2)O1 (centres unmarked) [2-(aminomethyl)-5-benzyl tetrahydrofuran]
Ki [1, 6]: > 10000 nM

SMILES: NCCC1CCC(Cc2ccccc2)O1 (centres unmarked) [2-(aminoethyl-5-benzyltetra-hydrofuran]
Ki [1, 3]: 3820 nM

SMILES: COc1ccc(F)cc1C[C@@H]1CC[C@H](CN)O1 (relative stereo) [Compound 18f, Cis-2-aminomethyl-5-(2′-methoxy-5′-fluorophenylmethyl)tetrahydrofuran]
IC50 [2]: 111 nM

SMILES: CN1CCC[C@H]1C=Cc1ccccc1 (stereo in doubt) [1-Methyl-2-Styrenyl Pyrrolidine]
Ki ([1]; Binding (Ki, nM) hSERT, Table 6): > 10000 nM

SMILES: CC(C)(C)c1ccc(C2CCC(CN)O2)cc1 (centres unmarked) [2-(aminomethyl)-5-(4′-t-butylphenyl) tetrahydrofuran]
Ki [2, 7]: 637 nM

SMILES: NCC1CCC(CCc2cccc3ccccc23)O1 (centres unmarked) [2-(aminomethyl)-5-(1′-naphethyl) tetrahydrofuran]
Ki ([1]; Binding (Ki, nM) hSERT): 18.5 nM

Second part, the compound after the results:

Ki [1, 6]: 2670 nM | Ki [2, 7]: 178 nM
SMILES: Cc1ccc(C2CCC(CN)O2)cc1F (centres unmarked) [2-(aminomethyl)-5-(3′-fluoro-4′-methylphenyl) tetrahydrofuran]

Ki [1, 4]: 886 nM | Ki [2, 5]: 1790 nM
SMILES: c1cncc(CCC2CCC(CCNCCC3CCC(CCc4cccnc4)O3)O2)c1 (centres unmarked) [N,N-bis(5′-(3″- pyridyl-ethyl)-2′-tetra-hydro-furylethyl) amine]

Ki [1, 6]: 10300 nM | Ki [2, 7]: > 10000 nM
SMILES: NCC1CCC(CCC2CCCO2)O1 (centres unmarked) [2-(amino-methyl)-5-(-2″- tetrahydrofuryl-2′-ethyl)tetra-hydrofuran.]

Ki [1, 6]: 1800 nM | Ki [2, 7]: 519 nM
SMILES: NCCC1CCC(CCc2ccc(OC(F)(F)F)cc2)O1 (centres unmarked) [2-(aminoethyl)-5-(4′-trifluoro-methoxyphenethyl)tetra-hydrafuran]

Ki [1, 4]: 937 nM | Ki [2, 5]: 2260 nM
SMILES: c1ccc(CC2CCC(CCNCCC3CCC(Cc4ccccc4)O3)O2)cc1 (centres unmarked) [N,N-bis(5′-benzyl-2′-tetrahydro-furyl)-2-ethyl) amine]

Ki [1, 8]: 45 nM | IC50 [2]: 4.1 nM
SMILES: NCC1CCC(c2ccc3ccccc3c2)O1 (centres unmarked) [Compound 15c, 2-(Aminomethyl)-5-(2′-naphthyl)tetrahydrofuran]

Ki [1, 4]: 252 nM | Ki [2, 5]: 3360 nM
SMILES: c1ccc2cc(C3CCC(CCNCCC4CCC(c5ccc6ccccc6c5)O4)O3)ccc2c1 (centres unmarked) [N,N-bis(5′-(2″- naphthyl-2′-tetrahydro-furyl)ethyl) Amine]

Ki [1, 4]: 1090 nM | Ki [2, 5]: 2020 nM
SMILES: c1ccc(C2CCC(CCNCCC3CCC(c4ccccc4)O3)O2)cc1 (centres unmarked) [N,N-bis(5′-phenyl-2′-tetrahydro-furyl-ethyl) amine]

Ki [1, 9]: 45 nM | Ki [2, 7]: 4 nM
SMILES: NCC1CCC(c2ccc3ccccc3c2)O1 (centres unmarked) [2-(aminomethyl)-5-(2′-naphthyl) tetrahydrofuran]

Ki [1, 4]: 148 nM | Ki [2, 5]: 375 nM
SMILES: COc1ccc(F)cc1[C@@H]1CC[C@@H](CCNCC[C@@H]2CC[C@@H](c3cc(F)ccc3OC)O2)O1 (relative stereo) [N,N-bis (trans-5′-(2″- methoxy-5″-fluoro-phenyl-2′-tetra-hydrofuryl)ethyl) Amine]

Ki [1, 6]: 538 nM | Ki [2, 7]: 278 nM
SMILES: NCCC1CCC(CCc2ccc(F)cc2)O1 (centres unmarked) [2-(aminoethyl)-5-(4′-fluoro-phenethyl) tetrahydrofuran]

Ki [1, 6]: 3740 nM | Ki [2, 7]: 3760 nM
SMILES: Cc1ccc(CCC2CCC(CCN)O2)cc1 (centres unmarked) [2-(aminoethyl)-5-(4′-methylphenethyl) tetrahydrofuran]

Ki [1, 6]: > 10000 nM | Ki [2, 7]: 217 nM
SMILES: NCCC1CCC(CCC2CCCCC2)O1 (centres unmarked) [2-(aminoethyl)-5-(cyclohexylethyl) tetrahydrofuran]

Ki [1, 9]: 7480 nM | Ki [2, 7]: 4040 nM
SMILES: NCCC1CCC(CCc2ccc(O)cc2)O1 (centres unmarked) [2-(aminoethyl)-5-(4′-hydroxy-phenethyl) tetrahydrofuran]

Ki [1, 6]: 92 nM
SMILES: NCC1CCC(CCc2cc(C(F)(F)F)ccc2Cl)O1 (centres unmarked) [2-(aminomethyl)-5-(2′-chloro-5′-trifluoromethyl) phenethyl)tetra-hydrouran]

Ki [1, 4]: 22 nM
SMILES: COc1ccc(F)cc1C[C@H]1CC[C@@H](CCNCC[C@H]2CC[C@@H](Cc3cc(F)ccc3OC)O2)O1 [N,N-bis(cis-5′-(2″- methoxy-5″-fluoro-benzyl-2′-tetrahydro-furyl)-2-ethyl) amine]

Ki [1, 4]: 3670 nM
SMILES: COc1ccc(CCC2CCC(CCNCCC3CCC(CCc4ccc(OC)c5ccccc45)O3)O2)c2ccccc12 (centres unmarked) [N,N-bis(5′-(4″-meth-oxy-1″-naphth-ethyl)-2′-tetrahydro-furyl-ethyl) amine]

Ki [1, 4]: 6760 nM
SMILES: C1CCC(C2CCC(CCNCCC3CCC(C4CCCCC4)O3)O2)CC1 (centres unmarked) [N,N-bis (5′-cyclo-hexyl-2′-tetra-hydro-furyl-ethyl) amine]

Ki [1, 6]: 17500 nM
SMILES: COc1ccc(F)cc1[C@@H]1CC[C@H](CCNCCc2ccccc2)O1 (relative stereo) [Cis-2-Phenethyl-aminoethyl)-5-(2′-methoxy-5′-fluorophenyl) tetrahydrofuran]

Ki [1, 4]: 6610 nM
SMILES: c1cc(CCC2CCC(CCNCCC3CCC(CCc4ccncc4)O3)O2)ccn1 (centres unmarked) [N,N-bis(5′-(4″- pyridyl-ethyl)-2′-tetrahydro-furyl-ethyl) amine]

Ki [1, 6]: 12100 nM
SMILES: NCCC1CCC(c2ccco2)O1 (centres unmarked) [2-(aminoethyl)-5-(2′-furyl)tetra-hydrofuran]

Ki [1, 6]: 1490 nM
SMILES: Cc1ccc(CCC2CCC(CCN)O2)cc1F (centres unmarked) [2-(aminoethyl)-5-(3′-fluoro-4′-methylphenethyl) tetrahydrafuran]

Ki [1, 6]: 381 nM
SMILES: NCC1CCC(CCCc2ccccc2)O1 (centres unmarked) [2-(aminomethyl)-5-(3′-phenyl-propyl) tetrahydrofuran]

Where two headings read alike, the source gives them in different places. One block for each compound: values may come before it.
